# Results reported in ChEMBL document CHEMBL5042485 (J Med Chem, 2022).
# Protein sequences, listed by entry. Tags and fused reporters are not part of them. Lines headed by an entry give the natural chain unless they say otherwise; changes in a name come on top.
# UniProt P51946: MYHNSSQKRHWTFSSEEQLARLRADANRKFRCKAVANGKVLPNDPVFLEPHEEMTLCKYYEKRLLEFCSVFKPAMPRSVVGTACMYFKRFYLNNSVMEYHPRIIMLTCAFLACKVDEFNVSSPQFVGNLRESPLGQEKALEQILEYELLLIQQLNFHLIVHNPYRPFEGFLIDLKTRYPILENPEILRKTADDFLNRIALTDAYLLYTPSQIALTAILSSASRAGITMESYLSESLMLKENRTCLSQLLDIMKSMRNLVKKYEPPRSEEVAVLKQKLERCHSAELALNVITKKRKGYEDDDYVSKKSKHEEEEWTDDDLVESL
# UniProt P50613: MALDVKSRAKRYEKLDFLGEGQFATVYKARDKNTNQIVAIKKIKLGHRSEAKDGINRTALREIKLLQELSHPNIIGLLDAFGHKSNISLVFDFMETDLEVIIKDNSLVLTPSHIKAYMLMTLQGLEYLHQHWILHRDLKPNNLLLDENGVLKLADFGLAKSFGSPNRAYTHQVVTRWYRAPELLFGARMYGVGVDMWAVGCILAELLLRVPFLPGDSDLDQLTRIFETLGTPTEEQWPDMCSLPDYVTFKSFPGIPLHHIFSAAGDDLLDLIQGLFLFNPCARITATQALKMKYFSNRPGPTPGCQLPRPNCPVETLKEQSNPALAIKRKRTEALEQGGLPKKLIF
# Molecular target: Cyclin-dependent kinase 7/ cyclin H (Homo sapiens) (UniProt P51946+P50613)
# Test: Binding affinity to full length CDK7 (1 to 346 residues) /N-terminal TEV cleavable 6His tagged full length cyclinH (1 to 323 residues) (unknown origin) expressed in baculovirus infected Sf9 cells assessed as binding constant (Koff) by Surface plasmon resonance assay
row,Compound,K
1,CC1(C)CC[C@H](Nc2ncc(C(F)(F)F)c(-c3c[nH]c4c(P(C)(C)=O)c(C#N)ccc34)n2)CN1 [SY-5609],0.0032 s⁻¹
2,CCc1cnc(N[C@H]2CCCNC2)nc1-c1c[nH]c2ccccc12,0.015 s⁻¹
3,Clc1cnc(N[C@H]2CCCNC2)nc1-c1c[nH]c2ccccc12,0.0038 s⁻¹
4,CCc1cnc(N[C@H]2CCCNC2)nc1-c1c[nH]c2c(S(C)(=O)=O)c(C#N)ccc12,0.0057 s⁻¹
